Reference: PMC8093215 (Nature Communications, 2021)

T1: JMJD2A Tudor domain (amino acids 894-1011) (human, UniProt O75164 894-1011)
T1 construct: JMJD2A (KDM4A), Tudor domain, amino acids 894-1011; also called JMJD2ATD; source: E. coli BL21(DE3) RIL, purified (nickel column, ULP1 cleavage, anion exchange, nickel, SEC); not shown: His6-SUMO, N-terminal, cleaved
T1 sequence (looked up): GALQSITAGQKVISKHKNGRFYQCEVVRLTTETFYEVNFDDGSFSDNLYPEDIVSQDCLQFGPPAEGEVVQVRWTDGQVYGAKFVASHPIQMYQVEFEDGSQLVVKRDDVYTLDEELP


How the values were obtained:
Settings in all cases: both partners purified
[1] = target: T2, human DNMT1 BAH1 domain (residues 728-900), wild type (human, UniProt P26358 728-900); assay: ITC; 1 mM H4K20me peptide titrated over 0.1 mM hDNMT1 BAH1 or BAH2 domain; 25 mM Tris-HCl pH 7.5, 100 mM NaCl, 2 mM DTT; 5 °C; single-site binding mode
T2 construct: numbering on isoform 1 of 1616 amino acids; modified pRSF-Duet vector; also called hDNMT1_(BAH1), WT; source: E. coli BL21(DE3) RIL, purified (nickel column, ULP1 cleavage, anion exchange, nickel, SEC); not shown: His6-SUMO, N-terminal, cleaved

[2] = target: T3, human DNMT1 BAH1 domain (residues 728–900) (human, UniProt P26358 728-900); assay: ITC; 1 mM H4K20me peptide titrated over 0.1 mM hDNMT1 BAH1; 5 °C; 25 mM Tris-HCl pH 7.5, 100 mM NaCl, 2 mM DTT; single-site fit
T3 construct: numbering on isoform 1 of DNMT1 with 1616 amino acids; modified pRSF-Duet vector; also called hDNMT1_(BAH1); source: E. coli BL21(DE3) RIL, purified (Ni, ULP1 cleavage, Q XL, Ni, SEC); not shown: His6-SUMO, N-terminal, cleaved

[3] = target: T4, MBP-hDNMT1(351–1600) (human, UniProt P26358 351-1600)
T4 construct: numbering on isoform 1 of DNMT1 with 1616 amino acids; also called WT; source: E. coli BL21(DE3) RIL, purified (Ni, ion exchange, SEC); not shown: His6-MBP, N-terminal, kept

[4] = target: T1, JMJD2A Tudor domain (amino acids …); assay: ITC; JMJD2ATD titrated with the H4(14-25)K20me3 peptide; 5 °C; single-site binding mode

Row | Binder | stoichiometry N [1] | Kd [2] | other results
1 | GAKRHRKVLRDNY (dimethyl-lysine at K20, histone H4, residues 14-25; additional C-terminal tyrosine for spectroscopic quantification; source: synthetic peptide (LifeTein)) [H4(14-25)K20me2 peptide] | 0.74 |  | 
2 | GAKRHRKVLRDNY (monomethyl-lysine at K20, histone H4, residues 14-25; additional C-terminal tyrosine for spectroscopic quantification; source: synthetic peptide (LifeTein)) [H4(14-25)K20me1 peptide] | 0.74 |  | Kd [1]: 11.4 µM

Second part, led by results:

Row | stoichiometry N [1] | Kd [2] | Binder | other results
3 |  | 10.6 µM | GAKRHRKVLRDNY (monomethyl-lysine at K20, histone H4, residues 14-25; additional C-terminal tyrosine for spectroscopic quantification; source: synthetic peptide (LifeTein)) [H4(14–25)K20me1 peptide] | 
4 |  | 2.7 µM | GAKRHRKVLRDNY (trimethyl-lysine at K20, histone H4, residues 14-25; additional C-terminal tyrosine for spectroscopic quantification; also called H4K20me3 peptide; source: synthetic peptide (LifeTein)) [H4(14–25)K20me3 peptide] | Kd [3]: > 300 µM
5 | 0.79 |  | GAKRHRKVLRDNY (trimethyl-lysine at K20, histone H4, residues 14-25; additional C-terminal tyrosine for spectroscopic quantification; also called H4K20me3 peptide; source: synthetic peptide (LifeTein)) [H4(14-25)K20me3 peptide] | Kd [4]: 0.51 µM; stoichiometry N [4]: 0.97
6 |  | 4.1 µM | GAKRHRKVLRDNY (dimethyl-lysine at K20, histone H4, residues 14-25; additional C-terminal tyrosine for spectroscopic quantification; also called H4K20me2 peptide; source: synthetic peptide (LifeTein)) [H4(14–25)K20me2 peptide] | 
